The record followed here is patent US8211933B2, “3.3.0 bicyclic GlyT1 inhibitors and methods of making and using same” (Vanderbilt University, priority 2008, dated 2012).

The term IC50 denotes the point on the concentration scale where inhibition reaches its midpoint.

The target of this experiment is T1, GlyT1 (Homo sapiens, UniProt P48067).
T1 construct: Human placental choriocarcinoma cells endogenously expressing GlyT1 can be cultured using standard conditions; host or cells: JAR human placental choriocarcinoma cells
T1 sequence (P48067 1-706): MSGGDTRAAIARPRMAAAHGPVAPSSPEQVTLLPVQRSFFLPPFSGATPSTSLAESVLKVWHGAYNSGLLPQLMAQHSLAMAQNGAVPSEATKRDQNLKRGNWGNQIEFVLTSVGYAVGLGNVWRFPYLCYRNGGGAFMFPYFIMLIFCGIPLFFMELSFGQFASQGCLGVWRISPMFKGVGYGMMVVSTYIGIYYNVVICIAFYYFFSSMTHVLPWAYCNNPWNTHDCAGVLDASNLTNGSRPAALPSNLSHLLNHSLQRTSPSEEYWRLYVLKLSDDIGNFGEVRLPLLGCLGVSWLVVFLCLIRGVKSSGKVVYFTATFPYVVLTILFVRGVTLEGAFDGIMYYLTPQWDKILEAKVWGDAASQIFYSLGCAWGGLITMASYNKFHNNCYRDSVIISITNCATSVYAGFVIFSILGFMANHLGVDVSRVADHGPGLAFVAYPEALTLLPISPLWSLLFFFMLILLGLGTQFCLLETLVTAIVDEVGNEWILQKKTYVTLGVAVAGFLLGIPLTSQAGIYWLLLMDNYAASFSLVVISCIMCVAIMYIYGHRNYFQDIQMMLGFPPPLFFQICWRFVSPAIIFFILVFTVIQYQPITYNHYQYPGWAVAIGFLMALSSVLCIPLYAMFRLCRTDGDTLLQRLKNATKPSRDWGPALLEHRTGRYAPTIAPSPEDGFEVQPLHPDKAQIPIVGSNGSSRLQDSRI
Briefly: [14C]-glycine uptake in JAR cells endogenously expressing GlyT1 (Cytostar T scintillation proximity). The class given is cell-based. Particulars: inhibition of [14C]-glycine uptake (10 μM), 3 h, read-out: Potency (IC50). On the procedure:
Human placental choriocarcinoma cells endogenously expressing GlyT1 can be cultured using standard conditions. Cells can then be grown at 37° C. in a humidified atmosphere 40-48 hours before the assay. Culture medium can be removed from the culture plate, and cells can be incubated with an amount of TBlA buffer with or without the compounds of the present invention for a sufficient period of time. Then an amount of [^14C]-glycine diluted with TBlA can be added to each well. After incubation the microplates can be sealed and counted. Non-specific uptake of [^14C]-glycine can be determined in the presence of unlabeled glycine. To determine potencies, a range of concentrations of the compounds of the present invention can be added to the cells, followed by the fixed concentration of [^14C]-glycine. The concentration of the present compound that inhibited half of the specific uptake of [^14C]glycine (IC50 value) can be determined from the assay data by non-linear curve fitting.
The procedure used was analogous to that disclosed in Williams, J. B.; Mallorga P. J.; Lemaire W.; Williams D. L.; Na S.; Patel S.; Conn J. P.; Pettibone D. J.; Austin C.; Sur C.; “Development of a scintillation proximity assay for analysis of Na+/Cl−-dependent neurotransmitter transporter activity,” ANAL. BIOCHEM.
Cells were plated at a density of 1.3×10^4 cells/well and grown at 37° C. in a humidified atmosphere of 5% CO2 for 40-48 h. […] Cytostar T plates were then incubated in the dark at room temperature for 3 h, sealed with opaque white bottom plate seals (Perkin-Elmer) and clear top plate seals (Topseal A, Perkin-Elmer), and were counted on a Top Count (Packard). Glycine uptake was determined by measuring radioactivity in each well and plotted as a function of concentration of test compound. […] Nonspecific uptake of [^14C]-glycine was determined in the presence of 10 mM cold glycine. […]
For orientation: SPA uses beads or plates that emit light when radiolabelled molecules are held near them.
Turning to `Cn1cnc(S(=O)(=O)N2CC3CCC(NC(=O)c4ccc(Cl)cc4Cl)C3C2)c1` (stereo not drawn) [Compound 5c + d, 2,4-dichloro-N-(2-(1-methyl-1H-imidazol-4-ylsulfonyl)octahydrocyclopenta[c]pyrrol-4-yl)benzamide], the IC50 stood at 0.034 µM.
Next, `Cn1cnc(S(=O)(=O)N2CC3CCC(NC(=O)c4ccc(Cl)cc4Cl)C3C2)c1` (stereo not drawn) [Compound 7a, 2,4-dichloro-N-(2-(1-methyl-1H-imidazol-4-ylsulfonyl)octahydrocyclopenta[c]pyrrol-4-yl)benzamide]: 0.025 µM; `Cn1cnc(S(=O)(=O)N2CC3CCC(NC(=O)C4CCCCC4)C3C2)c1` (stereo not drawn) [Compound 7k, N-(2-(1-methyl-1H-imidazol-4-ylsulfonyl)octahydrocyclopenta[c]pyrrol-4-yl) cyclohexanecarboxamide]: 0.617 µM.
